According to ChEMBL document CHEMBL4024706 (Eur J Med Chem, 2017):
pIC50, pKi: −log10 of the molar value.

Sequences of proteins named here, by UniProt entry; tags and fusion partners are left off. A change or cut given only in a name is not applied to a line headed by its entry.
UniProt Q06187: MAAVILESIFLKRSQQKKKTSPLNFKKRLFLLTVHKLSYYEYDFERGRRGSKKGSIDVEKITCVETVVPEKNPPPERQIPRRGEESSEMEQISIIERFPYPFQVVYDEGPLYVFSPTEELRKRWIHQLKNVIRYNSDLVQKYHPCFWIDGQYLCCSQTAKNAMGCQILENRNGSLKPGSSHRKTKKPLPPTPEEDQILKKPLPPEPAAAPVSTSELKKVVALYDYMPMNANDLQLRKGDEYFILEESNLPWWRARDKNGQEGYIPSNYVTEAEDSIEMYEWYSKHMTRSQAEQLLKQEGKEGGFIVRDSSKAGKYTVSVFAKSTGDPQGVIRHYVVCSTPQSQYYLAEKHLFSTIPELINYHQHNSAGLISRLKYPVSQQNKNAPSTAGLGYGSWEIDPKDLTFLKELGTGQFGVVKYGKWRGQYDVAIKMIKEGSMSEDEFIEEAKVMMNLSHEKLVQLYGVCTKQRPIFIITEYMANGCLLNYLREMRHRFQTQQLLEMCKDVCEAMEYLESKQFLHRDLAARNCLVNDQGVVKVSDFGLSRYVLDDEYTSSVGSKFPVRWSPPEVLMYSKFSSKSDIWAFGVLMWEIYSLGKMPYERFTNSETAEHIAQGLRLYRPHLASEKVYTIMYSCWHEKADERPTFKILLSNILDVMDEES

Legend:
[1] = target: T1, Tyrosine-protein kinase BTK (Homo sapiens, UniProt Q06187); assay: Inhibition of full length recombinant human N-terminal His tagged […] expressed in baculovirus infected Sf9 insect cells using poly (Glu,Tyr)4:1 as substrate pretreated for 60 mins followed by substrate addition after 1 hr by ADP-Glo luminescence assay
[2] = target: T1, Tyrosine-protein kinase BTK; assay: Reversible inhibition of full length recombinant human N-terminal His tagged […] expressed in baculovirus infected Sf9 insect cells using poly (Glu,Tyr)4:1 as substrate pretreated for 2 to 60 mins followed by substrate addition after 1 hr by ADP-Glo luminescence assay

- pIC50 [1]: 8.05
- pKi [2]: 7.68
Structure (SMILES): C=CC(=O)Nc1cccc(Nc2nc(Nc3ccc(OCCOC)cc3)ncc2F)c1 [SPEBRUTINIB]
